The entries are a selection whose mix differs from that of the whole data set. Results filed as inconclusive are left out. Calls of active or inactive are those of the source. How the source made its calls, unless noted: active means hit-call score of the fitted dose curve at least 0.9, where 1 is the maximum; inconclusive means response in the unintended direction; inactive means score below 0.9.
Columns and labels:
[1] = biological target: Retinoic acid receptor RXR-alpha (Homo sapiens) (UniProt P19793); experiment: OT_NURR1_NURR1RXRa_0480: Odyssey Thera (OT) 8-hour HEK293T Protein Complementation Assay for Nurr1/retinoid X receptor (RXR) (AID 2283385)
How it was run: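 Read-out: fluorescence from protein-fragment complementation between Nurr1 and RXRα in human HEK293T cells, 8 h after dosing. DMSO served as negative control; increased signal counted as activity.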

Amino acid sequences for entries named in this document (tags omitted). A change or cut given only in a name is not applied to a line headed by its entry.
UniProt P19793: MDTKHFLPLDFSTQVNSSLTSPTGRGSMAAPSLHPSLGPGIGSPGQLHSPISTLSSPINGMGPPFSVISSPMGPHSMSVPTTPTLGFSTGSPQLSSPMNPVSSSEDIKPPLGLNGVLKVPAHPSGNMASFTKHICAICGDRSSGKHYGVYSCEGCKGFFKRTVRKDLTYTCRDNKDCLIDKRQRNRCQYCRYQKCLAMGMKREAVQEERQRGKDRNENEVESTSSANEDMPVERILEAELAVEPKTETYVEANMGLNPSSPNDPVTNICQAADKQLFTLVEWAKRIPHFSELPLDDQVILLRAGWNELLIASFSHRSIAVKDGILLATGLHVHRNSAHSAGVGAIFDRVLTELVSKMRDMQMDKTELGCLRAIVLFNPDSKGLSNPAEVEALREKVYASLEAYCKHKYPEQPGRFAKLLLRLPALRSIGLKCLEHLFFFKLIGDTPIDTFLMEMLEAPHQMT
UniProt P37231: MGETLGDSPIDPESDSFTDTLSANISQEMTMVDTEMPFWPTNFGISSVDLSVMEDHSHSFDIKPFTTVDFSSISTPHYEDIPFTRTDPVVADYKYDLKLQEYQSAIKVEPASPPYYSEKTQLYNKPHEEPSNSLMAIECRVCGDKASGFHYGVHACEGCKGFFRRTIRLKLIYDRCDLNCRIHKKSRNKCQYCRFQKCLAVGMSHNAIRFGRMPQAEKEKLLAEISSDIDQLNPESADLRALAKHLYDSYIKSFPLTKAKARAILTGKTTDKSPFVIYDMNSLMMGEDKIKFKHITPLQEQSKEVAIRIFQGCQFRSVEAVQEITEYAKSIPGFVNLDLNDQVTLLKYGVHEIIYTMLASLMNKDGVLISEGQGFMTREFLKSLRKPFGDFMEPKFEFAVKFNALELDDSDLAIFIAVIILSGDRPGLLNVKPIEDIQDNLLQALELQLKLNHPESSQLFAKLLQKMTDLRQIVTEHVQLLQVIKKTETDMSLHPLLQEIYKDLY
UniProt P25445, whole entry, looked up: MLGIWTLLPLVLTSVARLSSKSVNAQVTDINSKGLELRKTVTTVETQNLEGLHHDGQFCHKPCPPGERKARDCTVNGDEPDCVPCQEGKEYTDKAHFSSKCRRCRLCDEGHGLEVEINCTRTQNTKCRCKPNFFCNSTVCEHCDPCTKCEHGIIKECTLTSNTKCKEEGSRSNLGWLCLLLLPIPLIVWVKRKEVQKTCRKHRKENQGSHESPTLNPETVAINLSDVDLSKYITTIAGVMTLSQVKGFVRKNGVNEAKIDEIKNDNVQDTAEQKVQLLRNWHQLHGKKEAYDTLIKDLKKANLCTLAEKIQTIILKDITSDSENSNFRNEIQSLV
UniProt P49327, whole entry, looked up: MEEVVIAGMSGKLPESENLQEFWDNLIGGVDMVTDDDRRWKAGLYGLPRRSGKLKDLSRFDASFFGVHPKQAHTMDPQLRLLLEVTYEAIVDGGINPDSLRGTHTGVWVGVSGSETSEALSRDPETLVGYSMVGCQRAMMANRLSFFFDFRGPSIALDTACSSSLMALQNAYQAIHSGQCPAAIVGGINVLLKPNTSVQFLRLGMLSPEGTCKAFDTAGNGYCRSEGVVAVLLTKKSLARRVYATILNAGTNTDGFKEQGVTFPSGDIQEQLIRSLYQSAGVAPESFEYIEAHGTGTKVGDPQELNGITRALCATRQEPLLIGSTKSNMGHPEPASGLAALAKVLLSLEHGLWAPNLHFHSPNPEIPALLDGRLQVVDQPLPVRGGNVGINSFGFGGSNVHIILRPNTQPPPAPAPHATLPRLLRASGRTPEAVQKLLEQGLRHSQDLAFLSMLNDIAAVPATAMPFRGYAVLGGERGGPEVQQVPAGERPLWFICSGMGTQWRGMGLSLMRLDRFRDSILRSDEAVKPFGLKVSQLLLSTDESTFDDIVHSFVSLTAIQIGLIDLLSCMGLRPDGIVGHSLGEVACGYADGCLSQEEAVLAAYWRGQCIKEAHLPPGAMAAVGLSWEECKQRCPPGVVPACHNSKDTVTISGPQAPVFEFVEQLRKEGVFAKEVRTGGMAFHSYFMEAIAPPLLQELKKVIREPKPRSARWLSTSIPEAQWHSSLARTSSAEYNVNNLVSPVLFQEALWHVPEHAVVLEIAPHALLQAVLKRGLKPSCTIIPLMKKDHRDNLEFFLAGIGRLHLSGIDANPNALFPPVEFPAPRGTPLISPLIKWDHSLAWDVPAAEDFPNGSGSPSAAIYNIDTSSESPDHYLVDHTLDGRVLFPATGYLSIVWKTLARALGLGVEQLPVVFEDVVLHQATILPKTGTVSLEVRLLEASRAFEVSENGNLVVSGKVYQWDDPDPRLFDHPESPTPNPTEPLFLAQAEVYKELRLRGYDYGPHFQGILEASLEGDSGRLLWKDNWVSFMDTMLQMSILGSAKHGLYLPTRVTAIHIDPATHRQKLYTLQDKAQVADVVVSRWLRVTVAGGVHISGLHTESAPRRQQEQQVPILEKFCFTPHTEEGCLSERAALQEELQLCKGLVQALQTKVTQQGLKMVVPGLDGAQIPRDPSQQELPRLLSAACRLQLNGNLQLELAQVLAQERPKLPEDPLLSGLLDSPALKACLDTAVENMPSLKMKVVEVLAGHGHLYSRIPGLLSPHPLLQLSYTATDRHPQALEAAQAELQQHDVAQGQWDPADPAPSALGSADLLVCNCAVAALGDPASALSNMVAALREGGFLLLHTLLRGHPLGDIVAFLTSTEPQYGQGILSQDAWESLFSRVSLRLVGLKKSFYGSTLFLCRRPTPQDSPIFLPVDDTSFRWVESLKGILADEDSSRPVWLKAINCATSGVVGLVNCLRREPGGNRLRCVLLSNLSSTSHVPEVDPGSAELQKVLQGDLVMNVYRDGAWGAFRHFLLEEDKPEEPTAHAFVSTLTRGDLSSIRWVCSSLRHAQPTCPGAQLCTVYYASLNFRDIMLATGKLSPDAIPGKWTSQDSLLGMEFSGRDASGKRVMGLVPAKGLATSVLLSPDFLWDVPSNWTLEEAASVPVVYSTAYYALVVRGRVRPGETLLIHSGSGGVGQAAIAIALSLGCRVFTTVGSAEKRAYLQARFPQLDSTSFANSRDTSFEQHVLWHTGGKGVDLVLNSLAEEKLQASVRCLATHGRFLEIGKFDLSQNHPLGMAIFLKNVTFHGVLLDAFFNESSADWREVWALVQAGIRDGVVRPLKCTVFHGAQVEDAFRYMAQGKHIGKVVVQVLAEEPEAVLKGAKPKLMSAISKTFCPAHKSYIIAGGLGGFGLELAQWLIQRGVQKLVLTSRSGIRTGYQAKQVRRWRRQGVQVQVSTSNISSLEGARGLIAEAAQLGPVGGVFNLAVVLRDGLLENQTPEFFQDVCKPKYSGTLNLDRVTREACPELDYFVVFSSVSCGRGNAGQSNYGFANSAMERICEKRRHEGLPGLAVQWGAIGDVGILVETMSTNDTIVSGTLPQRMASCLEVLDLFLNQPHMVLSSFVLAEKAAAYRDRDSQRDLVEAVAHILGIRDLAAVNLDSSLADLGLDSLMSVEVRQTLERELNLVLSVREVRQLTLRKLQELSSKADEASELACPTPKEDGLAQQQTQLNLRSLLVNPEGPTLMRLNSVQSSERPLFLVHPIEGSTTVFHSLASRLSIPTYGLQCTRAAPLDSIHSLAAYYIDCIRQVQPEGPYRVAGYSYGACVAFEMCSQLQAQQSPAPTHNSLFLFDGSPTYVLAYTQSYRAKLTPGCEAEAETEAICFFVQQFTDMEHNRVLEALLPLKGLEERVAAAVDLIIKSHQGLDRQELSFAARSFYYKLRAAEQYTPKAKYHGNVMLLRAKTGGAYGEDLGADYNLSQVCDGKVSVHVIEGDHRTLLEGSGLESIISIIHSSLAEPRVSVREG
UniProt Q92731, whole entry, looked up: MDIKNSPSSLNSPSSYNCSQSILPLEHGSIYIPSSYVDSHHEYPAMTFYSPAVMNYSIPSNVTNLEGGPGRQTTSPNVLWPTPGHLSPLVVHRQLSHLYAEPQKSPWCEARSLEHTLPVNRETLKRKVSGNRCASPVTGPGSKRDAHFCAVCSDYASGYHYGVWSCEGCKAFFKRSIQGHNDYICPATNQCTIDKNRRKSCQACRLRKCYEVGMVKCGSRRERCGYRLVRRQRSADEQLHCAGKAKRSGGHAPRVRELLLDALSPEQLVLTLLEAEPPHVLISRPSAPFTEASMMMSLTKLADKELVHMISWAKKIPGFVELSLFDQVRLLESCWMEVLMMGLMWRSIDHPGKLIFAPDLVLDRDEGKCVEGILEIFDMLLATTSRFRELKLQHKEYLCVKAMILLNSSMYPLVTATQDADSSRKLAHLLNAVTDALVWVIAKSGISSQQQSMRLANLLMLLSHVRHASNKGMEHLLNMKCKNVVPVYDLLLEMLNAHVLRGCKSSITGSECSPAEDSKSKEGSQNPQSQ
UniProt P03372, whole entry, looked up: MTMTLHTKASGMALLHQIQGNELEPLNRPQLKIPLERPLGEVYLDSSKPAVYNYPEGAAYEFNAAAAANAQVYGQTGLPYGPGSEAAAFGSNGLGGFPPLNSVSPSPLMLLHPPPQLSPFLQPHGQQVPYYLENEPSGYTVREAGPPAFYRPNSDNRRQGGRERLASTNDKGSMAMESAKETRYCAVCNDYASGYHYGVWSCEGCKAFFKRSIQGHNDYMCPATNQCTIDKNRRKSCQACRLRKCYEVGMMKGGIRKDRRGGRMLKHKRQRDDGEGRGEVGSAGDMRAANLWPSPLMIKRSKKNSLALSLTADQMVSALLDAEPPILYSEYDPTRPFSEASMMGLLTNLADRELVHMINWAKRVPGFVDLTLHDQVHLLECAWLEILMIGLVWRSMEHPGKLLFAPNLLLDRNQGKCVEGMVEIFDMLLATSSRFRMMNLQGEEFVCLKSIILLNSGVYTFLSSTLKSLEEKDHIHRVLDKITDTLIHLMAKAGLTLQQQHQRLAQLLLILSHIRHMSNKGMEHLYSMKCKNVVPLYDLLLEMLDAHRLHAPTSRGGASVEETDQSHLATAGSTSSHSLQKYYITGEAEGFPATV
UniProt Q96RI1: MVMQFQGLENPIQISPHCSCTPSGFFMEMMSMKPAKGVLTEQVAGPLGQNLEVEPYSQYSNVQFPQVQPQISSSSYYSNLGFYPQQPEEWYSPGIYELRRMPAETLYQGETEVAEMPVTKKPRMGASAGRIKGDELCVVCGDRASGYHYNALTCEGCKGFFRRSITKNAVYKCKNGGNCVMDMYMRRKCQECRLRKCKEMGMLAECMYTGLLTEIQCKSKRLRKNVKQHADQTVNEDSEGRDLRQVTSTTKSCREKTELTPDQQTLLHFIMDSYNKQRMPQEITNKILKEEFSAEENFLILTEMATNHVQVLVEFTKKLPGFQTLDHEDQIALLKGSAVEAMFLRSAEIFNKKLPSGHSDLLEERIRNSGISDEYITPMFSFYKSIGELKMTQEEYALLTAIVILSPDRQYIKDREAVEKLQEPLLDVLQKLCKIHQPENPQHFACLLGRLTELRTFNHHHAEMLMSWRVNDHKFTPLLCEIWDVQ

[2] = biological target: Retinoic acid receptor RXR-alpha (Homo sapiens) (UniProt P19793); experiment: OT_NURR1_NURR1RXRa_1440: Odyssey Thera (OT) 24-hour HEK293T Protein Complementation Assay for Nurr1/retinoid X receptor (RXR) (AID 2283386)
How it was run: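 Fluorescence PCA read-out; HEK293T; 24 h post-dose; bait/prey fused to reporter fragments; gain-of-signal fit vs DMSO negative control.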

[3] = biological target: Peroxisome proliferator-activated receptor gamma (Homo sapiens) (UniProt P37231); experiment: OT_PPARg_PPARgSRC1_0480: Odyssey Thera (OT) 8-hour Protein-Complementation Assay for Peroxisome Proliferator-activated Receptor Gamma / SRC-1 Co-activator (AID 2283387)
How it was run: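 Protein-fragment complementation in HEK293T: Venus YFP halves (residues 1-158, 159-239, mutated to IFP1/IFP2) fused to PPARg/SRC-1. 8 h exposure; N/C ratio at 488 nm; DMSO negative control.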

[4] = biological target: Peroxisome proliferator-activated receptor gamma (Homo sapiens) (UniProt P37231); experiment: OT_PPARg_PPARgSRC1_1440: Odyssey Thera (OT) 24-hour Protein-Complementation Assay for Peroxisome Proliferator-activated Receptor Gamma/ SRC-1 Co-activator (AID 2283388)
How it was run: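 HEK293T transiently transfected with PPARg/SRC-1 split-Venus YFP fusions 48 h before dosing, then treated 24 h at 37C. Fixed cells imaged; nuclear/cytoplasmic 488 nm fluorescence ratio, gain of signal versus DMSO.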

[5] = CEETOX_H295R_11DCORT: CeeTox H295R High-throughput Steroidogenesis Assay for 11-Deoxycortisol (11DCORT) (AID 2283432; active means hit-call score of the fitted dose curve at least 0.9, where 1 is the maximum; inactive means score below 0.9); settings: actives raise or lower the signal
How it was run: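 Adrenal carcinoma line H295R, run per OECD 456 with minor changes, was forskolin-stimulated (10 uM, 48 h) before a 48 h chemical exposure at 0.1% DMSO. Secreted 11-deoxycortisol was quantified by HPLC-MS/MS.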

[6] = CEETOX_H295R_OHPREG: CeeTox H295R High-throughput Steroidogenesis Assay for OH-Pregnenolone (OHPREG) (AID 2283434; active means hit-call score of the fitted dose curve at least 0.9, where 1 is the maximum; inactive means score below 0.9); settings: actives raise or lower the signal
How it was run: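 Secreted 17alpha-hydroxypregnenolone measured by HPLC-MS/MS after liquid-liquid extraction. Human adrenal H295R cells received 48 h forskolin (10 uM) stimulation before 48 h chemical exposure at 0.1% final DMSO; MTT viability in same wells; bidirectional fit against DMSO.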

[7] = CEETOX_H295R_OHPROG: CeeTox H295R High-throughput Steroidogenesis Assay for OH-Progesterone (OHPROG) (AID 2283435; active means hit-call score of the fitted dose curve at least 0.9, where 1 is the maximum; inactive means score below 0.9); settings: actives raise or lower the signal
How it was run: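 HPLC-MS/MS quantification of 17alpha-hydroxyprogesterone secreted by H295R cells after 48 h chemical exposure, following 48 h 10 uM forskolin prestimulation. Gain or loss of signal fitted relative to DMSO. Viability checked by MTT in the same wells.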

[8] = CEETOX_H295R_ANDR: CeeTox H295R High-throughput Steroidogenesis Assay for Androstenedione (ANDR) (AID 2283436; active means hit-call score of the fitted dose curve at least 0.9, where 1 is the maximum; inactive means score below 0.9); settings: actives raise or lower the signal
How it was run: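 Medium from 48 h chemical-treated H295R adrenal cells was extracted with MTBE and androstenedione measured by LC-MS/MS. Activity was fit in both directions relative to DMSO. Cytotoxic concentrations were re-tested after dilution until MTT viability reached ≥70%.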

[9] = CEETOX_H295R_CORTIC: CeeTox H295R High-throughput Steroidogenesis Assay for Corticosterone (CORTIC) (AID 2283437; active means hit-call score of the fitted dose curve at least 0.9, where 1 is the maximum; inactive means score below 0.9); settings: actives raise or lower the signal
How it was run: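 Medium corticosterone was quantified by tandem mass spectrometry following 48 hours of chemical exposure (0.1% DMSO) in human H295R cells previously stimulated 48 hours with 10 uM forskolin. Viability checked by MTT; chemicals diluted and retested when viability fell below 70%.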

[10] = CEETOX_H295R_CORTISOL: CeeTox H295R High-throughput Steroidogenesis Assay for Cortisol (AID 2283438; active means hit-call score of the fitted dose curve at least 0.9, where 1 is the maximum; inactive means score below 0.9;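 further: cortisol secreted into medium quantified by LC-MS/MS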); settings: actives raise or lower the signal
How it was run: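 Read-out: cortisol in culture medium by reverse-phase C18 HPLC with ESI-positive tandem MS, after MTBE liquid-liquid extraction. Cells: human adrenal H295R, forskolin-primed (10 uM, 48 h) before 48 h chemical exposure in 0.1% DMSO.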

[11] = CEETOX_H295R_DOC: CeeTox H295R High-throughput Steroidogenesis Assay for DOC (AID 2283439; active means hit-call score of the fitted dose curve at least 0.9, where 1 is the maximum; inactive means score below 0.9); settings: actives raise or lower the signal
How it was run: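 Human adrenocortical H295R cells, passages up to 10, received 10 uM forskolin for 48 h before chemical addition. After another 48 h exposure in 0.1% DMSO, secreted DOC was measured by LC-MS/MS, with gain or loss fitted against DMSO controls.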

[12] = CEETOX_H295R_PROG: CeeTox H295R High-throughput Steroidogenesis Assay for Progesterone (PROG) (AID 2283442; active means hit-call score of the fitted dose curve at least 0.9, where 1 is the maximum; inactive means score below 0.9); settings: actives raise or lower the signal
How it was run: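 H295R adrenal cells prestimulated 48 h with 10 uM forskolin, then exposed 48 h to test chemical in 0.1% DMSO. Progesterone in medium quantified by HPLC-MS/MS after MTBE extraction; viability checked by MTT in same wells.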

[13] = read-out: Tumor necrosis factor receptor superfamily member 6 (Homo sapiens) (UniProt P25445); experiment: LTEA_HepaRG_FAS: Life Technologies and Expression Analysis (LTEA) Assay for Fas cell surface death receptor (FAS) using HepaRG (AID 2283447; active means hit-call score of the fitted dose curve at least 0.9, where 1 is the maximum; inactive means score below 0.9); settings: actives raise or lower the signal; mRNA level, 48 h
How it was run: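 FAS transcript level was measured by TaqMan qRT-PCR against three housekeeping genes after 48 h chemical exposure. Cells were HepaRG, 0.5% DMSO vehicle, with a top concentration of 100 uM and half-log dilutions over eight points, in duplicate.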

[14] = read-out: Fatty acid synthase (Homo sapiens) (UniProt P49327); experiment: LTEA_HepaRG_FASN: Life Technologies and Expression Analysis (LTEA) Assay for Fatty Acid Synthase (FASN) using HepaRG (AID 2283448; active means hit-call score of the fitted dose curve at least 0.9, where 1 is the maximum; inactive means score below 0.9;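 on AC50: differentiated human HepaRG liver cells in serum-free induction medium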); settings: actives raise or lower the signal; mRNA level, 48 h
How it was run: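 HepaRG, 48 h exposure, 8-pt half-log series top 100 uM, 0.5% DMSO vehicle, duplicates. Readout: FASN transcript by Fluidigm qRT-PCR; housekeeping-normalized; bidirectional curve fit vs DMSO baseline.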

[15] = biological target: Estrogen receptor beta (Homo sapiens) (UniProt Q92731); experiment: OT_ER_ERbERb_1440: Odyssey Thera (OT) 24-hour HEK293T Protein-Complementation Assay for Estrogen Receptor-beta/-beta Homodimer (AID 2283380);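 further: fluorescence gain from ER beta LBD homodimer complementation read by laser scanning cytometry; scored as signal increase over DMSO baseline for both agonists and antagonists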
How it was run: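 Fluorescence increase, nuclear for agonists or whole-cell for antagonists, relative to DMSO vehicle, quantified by laser scanning cytometer after fixation and Draq5 staining. Readout from 24 h treatment of HEK293T cells carrying complementation-paired ER beta LBD (aa 310-547).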

[16] = biological target: Estrogen receptor (Homo sapiens) (UniProt P03372); experiment: OT_ERa_GFPERaERE_0480: Odyssey Thera (OT) 8-hour HeLa Transcription Induction Assay for Estrogen Receptor (AID 2283381; active means hit-call score of the fitted dose curve at least 0.9, where 1 is the maximum; inactive means score below 0.9)
How it was run: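 GFP-ERE reporter, HeLa, 8 h exposure. Readout: fluorescence microscopy, high-content image analysis. Fit direction positive vs DMSO negative control.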

[17] = biological target: Estrogen receptor (Homo sapiens) (UniProt P03372); experiment: OT_ERa_GFPERaERE_0120: Odyssey Thera (OT) 2-hour HeLa Transcription Induction Assay for Estrogen Receptor (AID 2283382)
How it was run: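 Fluorescence microscopy read-out: inducible fluorescent protein reporter in HeLa cells, imaged 2 h post-dose. Signal increase over DMSO negative control fitted as single primary endpoint via high content image analysis.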

[18] = biological target: Bile acid receptor (Homo sapiens) (UniProt Q96RI1); experiment: OT_FXR_FXRSRC1_0480: Odyssey Thera (OT) 8-hour HEK293T Protein-Complementation Assay for Farnesoid X receptor/SRC-1 Co-activator (AID 2283383)
How it was run: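 Fluorescence intensity read-out, 8 h post-dose, HEK293T protein-fragment complementation; FXR bait and SRC-1 prey each linked to reporter fragments. Activity scored as signal increase over DMSO negative control.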

[19] = biological target: Bile acid receptor (Homo sapiens) (UniProt Q96RI1); experiment: OT_FXR_FXRSRC1_1440: Odyssey Thera (OT) 24-hour HEK293T Protein-Complementation Assay for Farnesoid X receptor/SRC-1 Co-activator (AID 2283384)
How it was run: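 Fluorescence readout, 24 h post-dose, HEK293T; FXR and SRC-1 fused to complementary reporter fragments, association reconstitutes signal. Positive-direction fit vs DMSO baseline.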

[20] = read-out: Cyclin D2 (CCND2), CCND2 (gene 894); experiment: LTEA_HepaRG_CCND2: Life Technologies and Expression Analysis (LTEA) Assay for Cyclin D2 (CCND2) using HepaRG (AID 2283449; active means hit-call score of the fitted dose curve at least 0.9, where 1 is the maximum; inactive means score below 0.9); settings: actives raise or lower the signal; mRNA level, 48 h
How it was run: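 CCND2 transcript levels, quantified by qRT-PCR and normalised to three housekeeping genes, were fitted bidirectionally against 0.5% DMSO. HepaRG cultures were dosed 48 h in duplicate with an 8-point half-log series up to 100 uM.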

## O=C1C2CC=CCC2C(=O)N1SC(Cl)(Cl)C(Cl)Cl (stereo not given)
[1]
  outcome: inactive
[2]
  outcome: inactive
[3]
  outcome: inactive
[4]
  outcome: inactive
[5]
  outcome: inactive
[6]
  outcome: inactive
[7]
  outcome: inactive
[8]
  outcome: inactive
[9]
  outcome: inactive
[10]
  outcome: inactive
[11]
  outcome: inactive
[12]
  outcome: inactive
[13]
  AC50: active: 0.187 µM
[14]
  outcome: inactive

## CC(C)CCCCCCCOP(OCCCCCCCC(C)C)Oc1ccccc1
[15]
  outcome: inactive
[16]
  outcome: inactive
[17]
  outcome: inactive
[1]
  outcome: inactive
[3]
  outcome: inactive
[4]
  outcome: inactive

## CN(C(=O)Cc1cccc2occc12)[C@H]1CC[C@@]2(CCCO2)C[C@@H]1N1CCCC1
[15]
  outcome: inactive
[16]
  outcome: inactive
[17]
  outcome: inactive
[18]
  outcome: inactive
[19]
  outcome: inactive
[1]
  outcome: inactive
[2]
  outcome: inactive
[3]
  outcome: inactive
[4]
  outcome: inactive
[13]
  outcome: inactive
[14]
  outcome: inactive
[20]
  outcome: inactive

## ClP(Cl)c1ccccc1
[15]
  outcome: inactive
[16]
  outcome: inactive
[17]
  outcome: inactive
[1]
  outcome: inactive
[3]
  outcome: inactive
[4]
  outcome: inactive

## Cc1cc([N+](=O)[O-])cc([N+](=O)[O-])c1O
[18]
  outcome: inactive
[19]
  outcome: inactive
[1]
  outcome: inactive
[2]
  outcome: inactive
[3]
  outcome: inactive
[4]
  outcome: inactive
[13]
  AC50: active: 76.2 µM
[14]
  AC50: active: 8.09 µM
[20]
  outcome: inactive

## O=[P+](Oc1ccccc1)Oc1ccccc1
[2]
  outcome: inactive
[3]
  outcome: inactive
[4]
  outcome: inactive

## CC(C)OP(=S)(OC(C)C)SCCNS(=O)(=O)c1ccccc1
[3]
  outcome: inactive
[4]
  outcome: inactive
[13]
  AC50: active: 85.9 µM
[14]
  AC50: active: 90 µM
[20]
  outcome: inactive
